# Measured affinities in a library of Ab-14 heavy chain variants

Target: peptide PDVDLGDISGINAS, taken from heptad repeat 2 (HR2) of SARS-CoV-2 spike.

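The starting antibody came from a phage panning campaign against this peptide. Variants in AAYL49 differ from the parent at up to three CDR positions; double and triple changes were sampled at random. The assay is AlphaSeq: two haploid yeast populations carry antibody and antigen on their surface. Mating (16 h, 30 °C) was followed by selection of diploids and sequencing of their barcodes. Read counts were normalised to the haploid input and turned into Kd by a linear fit to BCL2-family pairs of known affinity, for each replicate. Each pool was mated in three replicate cultures.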

Parent scFv Ab-14: VH joined to VL by three GGGGS repeats. Changes lie in the heavy chain CDRs alone.
VH: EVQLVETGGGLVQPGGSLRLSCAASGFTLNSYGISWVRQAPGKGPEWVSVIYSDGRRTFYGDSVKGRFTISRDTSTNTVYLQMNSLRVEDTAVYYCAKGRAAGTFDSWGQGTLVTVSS
VL: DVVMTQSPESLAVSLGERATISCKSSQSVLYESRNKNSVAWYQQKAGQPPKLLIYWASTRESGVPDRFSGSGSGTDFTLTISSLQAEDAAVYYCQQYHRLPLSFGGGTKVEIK

Each variant's VH is given in full. The Kd shown is the geometric mean over detected replicates; a lower Kd is a better binder. An entry "not detected" has no value in the source: the pair was not observed among the diploids in any replicate. This suggests poor binding but is not conclusive.

VH,Kd (apparent),seen in,empty controls
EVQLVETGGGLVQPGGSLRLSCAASGPTLNSYGISWVRQAPGKGPEWVSVIYSDGRMMFYGDSVKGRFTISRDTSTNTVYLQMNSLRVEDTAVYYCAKGRAAGTFDSWGQGTLVTVSS,2.4 µM,2 of 3,2 of 9
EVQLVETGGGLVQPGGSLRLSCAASGFTLNSIGISWVRQAPGKGPEWVSVIYSDGRRTFWGDSVKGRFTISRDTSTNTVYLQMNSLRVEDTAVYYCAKGRAAGQFDSWGQGTLVTVSS,5.0 µM,1 of 3,1 of 9
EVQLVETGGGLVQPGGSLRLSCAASGFTLNSYGISWVRQAPGKGPEWVSYIYSDGRRTFYGDSVPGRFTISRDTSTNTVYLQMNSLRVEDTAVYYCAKGRAAGTFDSWGQGTLVTVSS,18 µM,1 of 3,0 of 9
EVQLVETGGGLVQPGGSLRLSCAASGFTLNSYGISWVRQAPGKGPEWVSVIYQLGRRTFNGDSVKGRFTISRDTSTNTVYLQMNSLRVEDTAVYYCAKGRAAGTFDSWGQGTLVTVSS,not detected,0 of 3,0 of 9
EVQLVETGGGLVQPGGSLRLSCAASGFTLNSYGDSWVRQAPGKGPEWVSVIYSDGRRTFYGISVKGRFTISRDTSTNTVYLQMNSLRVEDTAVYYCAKGRFAGTFDSWGQGTLVTVSS,not detected,0 of 3,0 of 9
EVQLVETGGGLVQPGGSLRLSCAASAFTQNSYGISWVRQAPGKGPEWVSVIYSDGRRTFYGDSVKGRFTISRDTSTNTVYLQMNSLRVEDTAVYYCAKGRTAGTFDSWGQGTLVTVSS,26 nM,3 of 3,1 of 9
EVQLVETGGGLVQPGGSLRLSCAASGFTLNSYQISWVRQAPGKGPEWVSVIYSDGVRTFYGDSVKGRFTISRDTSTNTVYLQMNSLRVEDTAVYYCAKGRCAGTFDSWGQGTLVTVSS,4.6 µM,1 of 3,1 of 9
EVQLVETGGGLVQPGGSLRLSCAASGFTLNSYGNSWVRQAPGKGPEWVSVIYSDGRRTFYGDSVKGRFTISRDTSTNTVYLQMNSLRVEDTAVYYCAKGRAWHTFDSWGQGTLVTVSS,not detected,0 of 3,0 of 9
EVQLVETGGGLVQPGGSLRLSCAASGFTQNSYKISWVRQAPGKGPEWVSVIYSDGRRTFYGDSVKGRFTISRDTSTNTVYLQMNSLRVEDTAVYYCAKGRLAGTFDSWGQGTLVTVSS,1.1 µM,2 of 3,2 of 9
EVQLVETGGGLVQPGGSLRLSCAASGFFLNSYGISWVRQAPGKGPEWVSVIYSCMRRTFYGDSVKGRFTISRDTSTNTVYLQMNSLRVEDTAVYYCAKGRAAGTFDSWGQGTLVTVSS,not detected,0 of 3,4 of 9
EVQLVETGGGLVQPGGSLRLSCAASGFTKNSAGISWVRQAPGKGPEWVSVIYSDGRRTFYGDSVKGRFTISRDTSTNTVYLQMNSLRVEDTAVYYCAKGRAAGTADSWGQGTLVTVSS,not detected,0 of 3,1 of 9
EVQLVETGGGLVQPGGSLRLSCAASGFFLNSYPISWVRQAPGKGPEWVSVIYSDGRRTFYGDYVKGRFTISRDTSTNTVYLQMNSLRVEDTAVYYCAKGRAAGTFDSWGQGTLVTVSS,62 µM,2 of 3,2 of 9
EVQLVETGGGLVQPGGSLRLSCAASGFTLNSYGISWVRQAPGKGPEWVSVISVDGRRHFYGDSVKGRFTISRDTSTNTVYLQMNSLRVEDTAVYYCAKGRAAGTFDSWGQGTLVTVSS,220 nM,1 of 3,0 of 9
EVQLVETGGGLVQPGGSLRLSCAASGLTLNSYGISWVRQAPGKGPEWVSVIYSDERRDFYGDSVKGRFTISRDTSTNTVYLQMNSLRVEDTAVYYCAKGRAAGTFDSWGQGTLVTVSS,8.5 µM,1 of 3,0 of 9
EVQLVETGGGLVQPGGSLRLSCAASGTPLNSYGISWVRQAPGKGPEWVSVIYSDGRRTFYGPSVKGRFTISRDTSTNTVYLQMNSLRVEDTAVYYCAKGRAAGTFDSWGQGTLVTVSS,350 nM,3 of 3,0 of 9
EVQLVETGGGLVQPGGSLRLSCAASGFTLNSYGISWVRQAPGKGPEWVSRIYSDGRRMFMGDSVKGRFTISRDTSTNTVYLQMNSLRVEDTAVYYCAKGRAAGTFDSWGQGTLVTVSS,270 µM,1 of 3,1 of 9
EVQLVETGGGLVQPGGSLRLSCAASGFTLNSYGISWVRQAPGKGPEWVSAIYSDGRMTFYGDSVKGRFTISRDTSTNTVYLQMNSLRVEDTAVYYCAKGRAAGTFDSWGQGTLVTVSS,not detected,0 of 3,2 of 9
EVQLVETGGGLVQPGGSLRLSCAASGITLNSYGISWVRQAPGKGPEWVSVIYSDGRETFYGDGVKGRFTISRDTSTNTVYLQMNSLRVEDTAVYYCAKGRAAGTFDSWGQGTLVTVSS,not detected,0 of 3,0 of 9
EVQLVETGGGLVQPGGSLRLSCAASGFTANSYGISWVRQAPGKGPEWVSVIYSDGRRTFYDDSVIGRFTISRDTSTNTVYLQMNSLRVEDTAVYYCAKGRAAGTFDSWGQGTLVTVSS,not detected,0 of 3,2 of 9
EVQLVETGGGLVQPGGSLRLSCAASGFGLFVYGISWVRQAPGKGPEWVSVIYSDGRRTFYGDSVKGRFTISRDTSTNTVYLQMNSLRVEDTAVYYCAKGRAAGTFDSWGQGTLVTVSS,3.9 µM,2 of 3,2 of 9
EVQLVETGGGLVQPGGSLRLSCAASGWTLNSYGISWVRQAPGKGPEWVSVIYSDGRRTFYGDSVKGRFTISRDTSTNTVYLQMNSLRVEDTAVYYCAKGRNAGDFDSWGQGTLVTVSS,190 nM,3 of 3,1 of 9
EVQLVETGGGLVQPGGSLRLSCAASGFTLNSVGISWVRQAPGKGPEWVSVIYSDGRRTFYGQSVKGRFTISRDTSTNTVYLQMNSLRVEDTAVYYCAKGRAAGTFLSWGQGTLVTVSS,73 µM,2 of 3,1 of 9
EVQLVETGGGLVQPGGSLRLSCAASGFTLNSYGISWVRQAPGKGPEWVSVIYSDGRRTFYCDSVKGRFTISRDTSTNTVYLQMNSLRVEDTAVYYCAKGRAAGRLDSWGQGTLVTVSS,36 µM,1 of 3,1 of 9

Parent in this assay: reference entry 4.4 nM, copy in this library 13 µM (one replicate of three). Nonspecific signal, from three strains lacking the peptide, appeared in 15% of pairings of library AAYL49, centred on 11 µM (5% of these signals below 680 nM); values are not corrected for it. For each scFv, signals with the empty controls are counted beside the result.

From the AlphaSeq antibody data of Engelhart et al. 2022 (doi:10.1038/s41597-022-01779-4), copy in the FLAb collection.